Assay results: patent publication US7629341B2, “Human ADAM-10 inhibitors” (Symphony Evolution, Inc., priority 2003, dated 2009)

Columns and labels:
[1] = biological target: MMP-8 (Neutrophil collagenase) (Homo sapiens, UniProt P22894); assay: In vitro metalloprotease inhibition, MMP-8; type: biochemical
Source text: (§1) Blank cells indicate lack of data only.

[2] = biological target: T1, MMP-2 (72 kDa gelatinase, gelatinase A) (Homo sapiens, UniProt P08253); assay: In vitro metalloprotease inhibition, MMP-2; type: biochemical
T1 sequence (P08253 110-660): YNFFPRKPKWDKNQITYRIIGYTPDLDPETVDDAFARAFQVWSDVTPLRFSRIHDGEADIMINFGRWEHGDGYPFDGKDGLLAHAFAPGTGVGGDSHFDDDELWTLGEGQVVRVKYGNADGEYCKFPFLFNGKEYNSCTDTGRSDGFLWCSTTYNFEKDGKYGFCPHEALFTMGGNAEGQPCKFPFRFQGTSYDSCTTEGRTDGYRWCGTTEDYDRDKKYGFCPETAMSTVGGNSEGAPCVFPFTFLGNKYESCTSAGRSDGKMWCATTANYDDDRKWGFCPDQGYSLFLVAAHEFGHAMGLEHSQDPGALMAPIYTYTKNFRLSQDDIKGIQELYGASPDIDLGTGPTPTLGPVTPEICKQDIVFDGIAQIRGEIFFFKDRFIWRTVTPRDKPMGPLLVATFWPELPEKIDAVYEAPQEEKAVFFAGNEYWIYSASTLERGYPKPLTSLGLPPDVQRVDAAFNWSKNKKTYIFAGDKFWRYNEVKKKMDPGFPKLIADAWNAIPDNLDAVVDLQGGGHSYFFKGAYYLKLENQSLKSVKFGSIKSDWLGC
Source text: as §1

[3] = biological target: MMP-9 (92 kDa gelatinase, gelatinase B) (Homo sapiens, UniProt P14780); assay: In vitro metalloprotease inhibition, MMP-9; type: biochemical
Source text: as §1

[4] = biological target: T2, ADAM-10 (UniProt O14672); assay: ADAM-10 enzyme assay, cleavage of a fluorogenic 10-residue peptide; type: biochemical, mouse or human (mADAM-10 or hADAM-10); settings: in vitro;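 further: mouse or human ADAM-10 at 5 nM active enzyme, pH 8.0 HEPES buffer with CaCl2 and NP-40, compounds titrated 100 µM down to 0.5 nM, fluorescence read after 16 h at room temperature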
T2 sequence (O14672 1-748): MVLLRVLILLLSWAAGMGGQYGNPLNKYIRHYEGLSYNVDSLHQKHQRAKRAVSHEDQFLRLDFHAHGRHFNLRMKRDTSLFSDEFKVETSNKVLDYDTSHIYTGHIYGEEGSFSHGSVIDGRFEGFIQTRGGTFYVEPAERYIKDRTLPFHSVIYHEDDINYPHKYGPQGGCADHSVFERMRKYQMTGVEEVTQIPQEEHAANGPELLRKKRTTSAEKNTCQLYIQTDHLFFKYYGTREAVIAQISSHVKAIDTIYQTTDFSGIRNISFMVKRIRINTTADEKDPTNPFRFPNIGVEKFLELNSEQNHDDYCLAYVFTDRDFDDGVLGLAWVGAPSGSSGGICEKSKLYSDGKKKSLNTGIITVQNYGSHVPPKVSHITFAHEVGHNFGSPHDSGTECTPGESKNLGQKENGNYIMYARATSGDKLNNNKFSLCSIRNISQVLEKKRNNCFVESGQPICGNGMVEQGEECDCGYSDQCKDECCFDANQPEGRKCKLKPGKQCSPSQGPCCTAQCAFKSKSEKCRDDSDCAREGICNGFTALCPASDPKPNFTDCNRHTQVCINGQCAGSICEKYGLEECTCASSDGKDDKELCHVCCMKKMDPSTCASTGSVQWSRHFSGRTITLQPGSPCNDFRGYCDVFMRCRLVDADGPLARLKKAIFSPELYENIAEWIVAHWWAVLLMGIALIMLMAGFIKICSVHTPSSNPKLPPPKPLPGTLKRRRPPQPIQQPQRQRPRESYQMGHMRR

[5] = biological target: MMP-13 (collagenase-3) (Homo sapiens, UniProt P45452); assay: In vitro metalloprotease inhibition, MMP-13; type: biochemical
Source text: as §1

- IC50 [1]: < 50 nM
- IC50 [2]: < 50 nM
- IC50 [3]: < 50 nM
- IC50 [4]: < 50 nM
- IC50 [5]: < 50 nM
Structure (SMILES): COCCOC(=O)N1CCN(S(=O)(=O)c2cc(F)c(Oc3ccc(Cl)cc3)c(F)c2)[C@@H](C(=O)NO)C1 [Entry 15]
